In PMC6290913 (2018):

Experiments:
85 serine hydrolases = conditions: 33.3 μM to 10 nM; semiquantitative
prostate xenograft = conditions: 200 mg/kg in drinking water ad libitum; cited from earlier work
Sprague-Dawley rats = test: Rat diuresis and kaliuresis model; assay type: in vivo; conditions: 1.5 mg/kg iv after 25 mg/kg acetazolamide; urine over 6 h

Compound	serine hydrolases inhibited in EnPlex screen (85 serine hydrolases)	effect in prostate xenograft mouse model (prostate xenograft)	Na+/K+ excretion ratio (Sprague-Dawley rats)
N=C(N)NC(=O)c1nc(Cl)c(N)nc1N [Compound 4, amiloride, reference compound]	slight activity against only a few serine hydrolases (C1r, C1s, DDHD1, factor VIIa, and LACTB)	complete remission	–
N=C(N)NC(=O)c1nc(-c2cc3ccccc3o2)c(N2CCCCCC2)nc1N [Compound 18, 3-Amino-5-(azepan-1-yl)-6-(benzofuran-2-yl)-N-carbamimidoylpyrazine-2-carboxamide]	–	–	2.44−2.68
